Literature values as cited in PMC7993274 (Clinical and Translational Science, 2020).

Details: patients with psoriasis, up to 12 mg total daily dose; cited from earlier work

BMS‐986165
acne and aphthous ulcer AEs: Several cases of dose‐dependent, mild‐to‐moderate acne, and cases of aphthous ulcer
